Targets include PI3K-γ (p110γ) (Homo sapiens (Human), UniProt P48736); PI3K-δ (p110δ/p85α) (Homo sapiens (Human), UniProt O00329); PI3K-β (Homo sapiens, UniProt P42338).
Holding throughout (experiment): Transcreener KINASE Assay, fluorescent determination of PI3K enzyme activity
Type in all cases: biochemical

Protein sequences, listed by entry. Tags and fused reporters are not part of them. Lines headed by an entry give the natural chain unless they say otherwise; changes in a name come on top.
UniProt P48736, whole entry, species assumed: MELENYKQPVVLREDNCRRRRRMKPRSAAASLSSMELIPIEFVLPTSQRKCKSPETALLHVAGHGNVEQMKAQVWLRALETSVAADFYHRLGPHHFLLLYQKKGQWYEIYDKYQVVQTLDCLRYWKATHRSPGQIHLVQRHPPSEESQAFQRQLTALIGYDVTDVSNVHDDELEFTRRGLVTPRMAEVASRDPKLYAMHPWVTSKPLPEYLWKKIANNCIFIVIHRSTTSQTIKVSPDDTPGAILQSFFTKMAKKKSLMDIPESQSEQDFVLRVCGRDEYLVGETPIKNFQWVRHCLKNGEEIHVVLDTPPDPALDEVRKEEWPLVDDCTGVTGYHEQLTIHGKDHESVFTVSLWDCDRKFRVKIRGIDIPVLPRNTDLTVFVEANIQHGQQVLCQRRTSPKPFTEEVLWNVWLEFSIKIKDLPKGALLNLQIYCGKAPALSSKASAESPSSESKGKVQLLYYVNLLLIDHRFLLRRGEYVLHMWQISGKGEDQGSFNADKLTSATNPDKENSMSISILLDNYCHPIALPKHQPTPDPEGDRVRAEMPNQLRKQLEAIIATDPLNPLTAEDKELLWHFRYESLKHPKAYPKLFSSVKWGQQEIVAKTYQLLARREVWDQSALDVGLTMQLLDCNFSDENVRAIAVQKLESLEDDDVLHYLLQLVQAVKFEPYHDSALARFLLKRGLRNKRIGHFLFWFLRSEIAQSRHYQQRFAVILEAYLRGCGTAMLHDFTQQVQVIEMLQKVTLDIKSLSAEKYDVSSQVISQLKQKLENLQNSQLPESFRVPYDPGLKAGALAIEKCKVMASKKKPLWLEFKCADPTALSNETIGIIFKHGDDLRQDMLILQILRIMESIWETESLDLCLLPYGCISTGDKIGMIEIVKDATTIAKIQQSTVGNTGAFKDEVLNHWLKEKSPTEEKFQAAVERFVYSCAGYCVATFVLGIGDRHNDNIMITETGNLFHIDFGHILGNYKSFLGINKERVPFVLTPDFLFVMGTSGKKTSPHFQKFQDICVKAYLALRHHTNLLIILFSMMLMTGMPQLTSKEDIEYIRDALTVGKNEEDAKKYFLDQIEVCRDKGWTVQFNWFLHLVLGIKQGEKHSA
UniProt O00329, whole entry, species assumed: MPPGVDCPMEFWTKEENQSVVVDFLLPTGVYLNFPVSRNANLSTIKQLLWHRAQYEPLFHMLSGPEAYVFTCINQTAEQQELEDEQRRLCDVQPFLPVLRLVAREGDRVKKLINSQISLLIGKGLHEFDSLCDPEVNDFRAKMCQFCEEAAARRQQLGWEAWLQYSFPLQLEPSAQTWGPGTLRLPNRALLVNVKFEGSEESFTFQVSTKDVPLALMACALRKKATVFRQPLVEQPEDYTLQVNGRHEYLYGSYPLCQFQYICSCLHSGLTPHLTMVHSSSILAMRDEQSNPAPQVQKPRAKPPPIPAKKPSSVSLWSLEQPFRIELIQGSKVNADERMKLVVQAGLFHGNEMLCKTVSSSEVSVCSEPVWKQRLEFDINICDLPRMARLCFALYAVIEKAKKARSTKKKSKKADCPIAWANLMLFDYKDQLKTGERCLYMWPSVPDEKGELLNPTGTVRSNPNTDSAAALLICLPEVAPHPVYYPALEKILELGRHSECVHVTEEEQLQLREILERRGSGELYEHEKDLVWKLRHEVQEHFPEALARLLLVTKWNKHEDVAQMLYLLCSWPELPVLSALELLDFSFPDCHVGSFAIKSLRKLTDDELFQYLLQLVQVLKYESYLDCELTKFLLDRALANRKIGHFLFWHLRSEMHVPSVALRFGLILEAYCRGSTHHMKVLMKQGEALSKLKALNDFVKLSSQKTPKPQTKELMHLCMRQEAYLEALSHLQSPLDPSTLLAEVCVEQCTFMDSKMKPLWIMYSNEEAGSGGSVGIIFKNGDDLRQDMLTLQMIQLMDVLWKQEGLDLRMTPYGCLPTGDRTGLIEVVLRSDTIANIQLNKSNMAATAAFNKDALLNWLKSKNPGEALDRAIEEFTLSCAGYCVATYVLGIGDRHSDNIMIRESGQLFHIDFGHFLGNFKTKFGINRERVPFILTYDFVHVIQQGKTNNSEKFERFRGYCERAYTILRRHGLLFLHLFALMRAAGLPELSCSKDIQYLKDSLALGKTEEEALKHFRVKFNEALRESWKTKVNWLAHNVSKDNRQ
UniProt P42338: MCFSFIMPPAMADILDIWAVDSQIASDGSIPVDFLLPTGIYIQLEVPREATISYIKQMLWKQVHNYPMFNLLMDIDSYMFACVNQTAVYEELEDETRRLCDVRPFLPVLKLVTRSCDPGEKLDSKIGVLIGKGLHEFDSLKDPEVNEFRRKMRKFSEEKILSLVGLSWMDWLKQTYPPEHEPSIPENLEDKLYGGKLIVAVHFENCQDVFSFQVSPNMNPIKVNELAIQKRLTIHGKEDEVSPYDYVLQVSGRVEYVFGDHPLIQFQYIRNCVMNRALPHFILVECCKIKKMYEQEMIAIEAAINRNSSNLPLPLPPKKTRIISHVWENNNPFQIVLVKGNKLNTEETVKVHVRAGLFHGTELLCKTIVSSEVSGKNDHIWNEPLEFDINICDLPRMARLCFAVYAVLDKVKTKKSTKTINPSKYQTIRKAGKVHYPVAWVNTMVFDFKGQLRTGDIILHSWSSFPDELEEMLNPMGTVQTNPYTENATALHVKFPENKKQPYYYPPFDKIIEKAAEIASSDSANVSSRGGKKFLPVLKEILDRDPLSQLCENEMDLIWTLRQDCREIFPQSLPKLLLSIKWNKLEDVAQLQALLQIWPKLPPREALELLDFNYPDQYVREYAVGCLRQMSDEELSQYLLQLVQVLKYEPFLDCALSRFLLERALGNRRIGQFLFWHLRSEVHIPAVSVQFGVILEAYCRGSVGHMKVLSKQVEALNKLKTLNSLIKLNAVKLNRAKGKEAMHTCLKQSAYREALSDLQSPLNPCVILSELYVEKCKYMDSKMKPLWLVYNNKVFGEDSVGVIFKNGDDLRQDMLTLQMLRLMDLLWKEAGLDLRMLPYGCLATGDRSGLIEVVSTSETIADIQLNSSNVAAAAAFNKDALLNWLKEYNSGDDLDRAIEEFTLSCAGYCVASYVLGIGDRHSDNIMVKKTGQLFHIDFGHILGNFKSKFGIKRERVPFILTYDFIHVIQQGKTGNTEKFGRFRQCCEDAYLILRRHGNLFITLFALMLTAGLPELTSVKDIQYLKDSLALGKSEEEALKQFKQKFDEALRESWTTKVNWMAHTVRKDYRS

Molecules are shown by their SMILES.

On PI3K-γ (p110γ), `CC(Nc1ncnc(N)c1C#N)c1cc2ncc(Cl)n2nc1-c1ccccc1` (racemic) [Compound 2, 4-amino-6-((1-(3-chloro-6-phenylimidazo[1,2-b]pyridazin-7-yl)ethyl)amino)pyrimidine-5-carbonitrile] had an IC50 of 168 nM. In other words, the sub-micromolar range.
In turn, `C[C@@H](Nc1ncnc(N)c1C#N)c1cc2ncc(Cl)n2nc1-c1ccccc1` [Compound 3, (R)-4-amino-6-((1-(3-chloro-6-phenylimidazo[1,2-b]pyridazin-7-yl)ethyl)amino)pyrimidine-5-carbonitrile] displayed an IC50 against PI3K-δ (p110δ/p85α) of 48 nM. In other words, the double-digit nanomolar range.
With `C[C@H](Nc1ncnc(N)c1C#N)c1cc2ncc(Cl)n2nc1-c1ccccc1` [Compound 4, (S)-4-amino-6-((1-(3-chloro-6-phenylimidazo[1,2-b]pyridazin-7-yl)ethyl)amino)pyrimidine-5-carbonitrile], the results for the IC50 on PI3K-γ (p110γ) and at PI3K-δ (p110δ/p85α) were 38 nM and 0.3 nM, respectively.
`Cc1nnc(-c2c(N)ncnc2N[C@@H](C)c2cc3ncc(Cl)n3nc2-c2ccccc2)o1` [Compound 81, (S)—N^4-(1-(3-chloro-6-phenylimidazo[1,2-b]pyridazin-7-yl)ethyl)-5-(5-methyl-1,3,4-oxadiazol-2-yl)pyrimidine-4,6-diamine] returned an IC50 on PI3K-β of 630 nM.

The IC50 is the midpoint of a concentration-inhibition curve. A lower IC50 goes with greater potency.

These data come from patent US10208066B2, “Imidazopyridazine compounds and their use” (HUTCHISON MEDIPHARMA LIMITED, priority 2014, dated 2019).
